{
  "source": "patent US5731160A",
  "about": "“Induction of antigen specific T-lymphocyte responses by stimulation with peptide loaded MHC class I molecules on antigen processing defective mammalian cell lines” (Rijksuniversiteit Leiden, priority 1992, dated 1998)",
  "key": {"RMA-S cells": {"tested_on": "RMA-S cells", "assay": "Induction of primary CTL responses in vitro with peptide-loaded RMA-S cells", "type": "cell-based, murine", "description": "RMA-S or RMA cells were pre-cultured for 36 h at 22° C. or 37° C. in IMDM medium supplemented with 2% human pooled serum, penicillin (100 IU/ml), kanamycin (100 μg/ml), S and 2-ME (2×10^-5 M). The cells were irradiated at 7500 rad or mitomycin C treated (50 μg/ml) in serum-free medium, 2 h at 22° C.), washed three times and subsequently incubated for 4 h with or without synthetic peptides, A16 or S16 or S9, at 22° C. in serum-free IMDM medium. Without further washing these (peptide-loaded) RMA-S cells were incubated 1:1(v/v) with C57BL/6 nylon wool-passed spleen cells (B6 NWP SC) in 24-well culture plates: 4×10^6 responder cells and 1×10^6 stimulator cells in 1 ml of culture medium per well in IMDM medium supplemented with 10% FCS, penicillin (100 IU/ml), kanamycin (100 μg/ml), and 2-ME(2×10^-5 M). For a primary CTL response NWP SC of non-immunized C57BL/6 mice were used.\nAfter 5 days of culture the effectors were harvested on a lymphoprep (Nycomed Pharma, Oslo, Norway) gradient and tested for cytotoxic function on 2000 ^51 Cr-labeled target cells ranging from E/T 50 to E/T 0.8 in twofold dilution steps. The percentage specific ^51 Cr release was calculated by the formula: [formula]\nBackground (medium) release was always <25% of maximal (2% Triton X-100) release. […] Cytolytic activity calculated from individual dose-response curves is expressed as lytic units per 10^6 effector cells. […]"}, "[1]": {"biological_target": "H-2K^b MHC class I molecule (Mus musculus, UniProt P01901)", "conditions": "reference 4, cited from earlier work"}},
  "note": "Read-outs that look alike come from different tables or passages of the source.",
  "data": [
    {"sequence": "FAPGNYPAL [S9]", "values": [
      {"measurement": "fold lower concentration of 9-mer than of 16-mer peptide sufficing for induction of a T cell response", "setting": "RMA-S cells; RMA-S pre-cultured at 22° C., FIG. 2A", "result": 50, "unit": "fold"},
      {"measurement": "fold lower peptide concentration required when RMA-S cells pre-cultured at 22° C. than at 37° C.", "setting": "RMA-S cells; primary CTL response, FIG. 3B", "result": "About 100 fold"},
      {"measurement": "Binding affinity to MHC class I molecules", "setting": "[1]", "result": "able to bind with high affinity"},
      {"measurement": "Binding affinity to MHC class I molecules", "setting": "[1]; listed as Sendai peptide of 9aa", "result": "binds with high affinity"}
    ]}
  ]
}
